Experimental data taken from patent publication US20240426809A1, “EVALUATION METHOD OF ANTICANCER DRUG AND SELECTION METHOD OF ANTICANCER DRUG” (TOPPAN Holdings Inc., priority 2023, published 2024).

Test system: EML4-ALK positive non-small cell lung cancer cell LCC028-3 strain
Assay: Sensitivity evaluation, 3D culture compared with 2D culture (Example 4)
Format: cell-based
Details: LCC028-3, cell structure (3D) compared with 2D-cultured cells
Method: HUVEC was mixed with NHDF such that HUVEC was 1.5% (number of cells/number of cells) with respect to NHDF, and centrifuged, and the supernatant was removed, and then Hep/Col solution (a mixture solution of heparin and collagen) was added thereto. Next, the supernatant was removed after centrifugation, and then the cells were suspended in a culture medium. The suspension was performed such that the total liquid amount was 135 μL per 0.9×10^6 particles. The cells suspended in the culture medium were seeded in a transwell insert-integrated 96-well (0.4 μm polyester membrane) treated with fibronectin coding, and the cells were precipitated by plate centrifugation (400 G, 2 minutes) and cultured in an incubator at 37° C. in an atmosphere of 5% CO2 to obtain a cell structure consisting of NHDF and HUVEC. On the next day of the start date of the culture, an appropriate amount of cancer cells was seeded on the top surface of the cell structure and cultured to construct a cell structure containing cancer cells, NHDF, and HUVEC.
First, the cancer cells were seeded on a black plate (transparent bottom) at an appropriate seeding number determined in advance. On the next day of the seeding, an anticancer drug solution (a solution containing an anticancer drug in ⅓ amount of the culture medium at the time of seeding) was added to the culture medium to perform drug treatment. […]

Q: CCc1cc2c(cc1N1CCC(N3CCOCC3)CC1)C(C)(C)c1[nH]c3cc(C#N)ccc3c1C2=O [ALK inhibitor, Alectinib] was tested. Which anticancer effect did it give?
A: smaller

Q: And the “relative cell survival rate” value?
A: higher
